Source: patent US5114925A, “Renin inhibitors containing the 2-[[(2R,3S)-3-amino-4-cyclohexyl-2-hydroxy-1-butyl]thio)alkanoyl moiety and the corresponding sulfoxide and sulfone derivatives” (Merck & Co., Inc., priority 1991, dated 1992)

Protein sequences, listed by entry. Tags and fused reporters are not part of them. Residues count along the entry.
UniProt P00797, 67-406: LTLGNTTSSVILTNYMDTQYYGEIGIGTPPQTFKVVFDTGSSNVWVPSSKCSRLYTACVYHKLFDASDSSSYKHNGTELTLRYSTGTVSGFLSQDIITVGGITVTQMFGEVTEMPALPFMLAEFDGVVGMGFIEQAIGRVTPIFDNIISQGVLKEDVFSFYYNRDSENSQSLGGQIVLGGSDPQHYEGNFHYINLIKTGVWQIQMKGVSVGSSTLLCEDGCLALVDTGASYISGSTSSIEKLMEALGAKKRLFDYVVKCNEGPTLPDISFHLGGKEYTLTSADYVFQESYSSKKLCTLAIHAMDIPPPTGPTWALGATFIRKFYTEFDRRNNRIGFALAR

Target: T1, human renin (Homo sapiens, UniProt P00797)
T1 construct: added to human plasma (75 μl) containing EDTA; from tissue; host or cells: human plasma
Experiment: plasma renin assay (radioimmunoassay of angiotensin-I released in human plasma)
Format: biochemical
Conditions: human renin and human renin substrate in human plasma, 37° C., pH 6.9, angiotensin-I by radioimmunoassay; read-out: IC50 (the molar concentration required to cause 50% inhibition), renin inhibitory activity
Description: It is based on the measurement, by radiommunoassay, of Angiotensin-I released from human renin substrate by human renin in human plasma. The inhibitor is dissolved in 0.01N HCl (10 μl) and added to human plasma (75 μl) containing EDTA, and angiotensin-I antibody ([…]) in 3M-Tris.HCl buffer (pH 6.9).
Free and bound ligand are separated by the addition of dextran-coated charcoal, and the amount of bound radio-ligand determined in a gamma counter.

| SMILES | IC50 [nM] |
| --- | --- |
| CCOC(=O)[C@@H](CC(C)C)SC[C@H](O)[C@H](CC1CCCCC1)NC(=O)[C@H](Cc1c[nH]cn1)NC(=O)[C@H](Cc1ccccc1)NC(=O)OC(C)(C)C [ethyl (2 -- R)-2-[X-thio]-4-methylpentanoate] | 288 |
| CCOC(=O)[C@H](CC(C)C)SC[C@H](O)[C@H](CC1CCCCC1)NC(=O)[C@H](Cc1cnc[nH]1)NC(=O)[C@H](Cc1ccccc1)NC(=O)OC(C)(C)C [Ethyl (2S)-2-[[(2R,3S)-3-(Boc-L-phenylalanyl-L-histidylamino)-4-cyclohexyl-2-hydroxy-1-butyl]-thio]-4-methylpentanoate] | 305 |
